Values quoted from earlier work, collected in patent publication US8389024B2, “Abscisic acid against cancer” (priority 2005, dated 2013).

Conditions: calculated at 30% of acetonitrile (Kelen et al. 2004)

## [S-(Z,E)]-5-(1-Hydroxy-2,6,6-trimethyl-4-oxo-2-cyclohexen-1-yl)-3-methyl-2,4-pentadienoic acid [ABA]
  ABA pK value: 5.82
